Data taken from US9187490B2, “Dimeric IAP inhibitors” (TetraLogic Pharmaceuticals Corporation, priority 2005, dated 2015).
Read-outs that look alike come from different tables or passages of the source.

Protein sequences, listed by entry. Tags and fused reporters are not part of them. Residues count along the entry.
UniProt P98170, 241-356 limits assumed: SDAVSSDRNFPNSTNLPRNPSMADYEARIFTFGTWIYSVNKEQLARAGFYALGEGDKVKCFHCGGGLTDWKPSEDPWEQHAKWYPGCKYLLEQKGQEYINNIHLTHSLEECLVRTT

Biological target: XIAP-BIR3 (Homo sapiens, UniProt P98170)
Assay: XIAP BIR-3 fluorescence polarization binding assay
[1] = read-out: KD Range, 5 nM AbuRPF-K(5-Fam)-NH2, 40 nM XIAP-BIR3, 15 min RT, pH 7.5
[2] = read-out: KD Range, Example 7 series

Kd [2] | Structure (SMILES) | also measured
– | CN[C@@H](C)C(=O)N[C@H](C(=O)N1CCC[C@H]1Cc1c2n(c3ccccc13)CCCn1c-2c(C[C@@H]2CCCN2C(=O)[C@@H](NC(=O)[C@H](C)NC)[C@@H](C)O)c2ccccc21)[C@@H](C)O | Kd [1]: < 100 nM
< 100 nM | CN[C@@H](C)C(=O)N[C@H](C(=O)N1CCC[C@H]1Cc1c(-c2[nH]c3cc(F)ccc3c2C[C@@H]2CCCN2C(=O)[C@@H](NC(=O)[C@H](C)NC)[C@@H](C)O)[nH]c2cc(F)ccc12)[C@@H](C)O | –
< 100 nM | CN[C@@H](C)C(=O)N[C@H](C(=O)N1CCC[C@H]1Cc1c(-c2[nH]c3cc(F)ccc3c2C[C@@H]2CCCN2C(=O)[C@@H](NC(=O)[C@H](C)N)C(C)C)[nH]c2cc(F)ccc12)C(C)C [Entry 74] | –
< 100 nM | CN[C@@H](C)C(=O)N[C@H](C(=O)N1CCC[C@H]1Cc1c(-c2[nH]c3ccccc3c2C[C@@H]2CCCN2C(=O)[C@@H](NC(=O)[C@H](C)N)C(C)C)[nH]c2ccccc12)C(C)C | –
– | CNC(C)C(=O)NC(C(=O)N1CCCC1Cc1cn(CCn2cc(CC3CCCN3C(=O)C(NC(=O)C(C)NC)C(C)O)c3ccccc32)c2ccccc12)C(C)O (centres unmarked) | Kd (read-out: KD Range,, Example 10 series): < 100 nM
< 100 nM | CC[C@H](N)C(=O)N[C@H](C(=O)N1CCC[C@H]1Cc1c(-c2[nH]c3ccccc3c2C[C@@H]2CCCN2C(=O)[C@@H](NC(=O)[C@@H](N)CC)C(C)C)[nH]c2ccccc12)C(C)C | –
– | CN[C@@H](C)C(=O)N[C@H](C(=O)N1CCC[C@H]1Cc1c(CCCn2cc(C[C@@H]3CCCN3C(=O)[C@@H](NC(=O)[C@H](C)NC)[C@@H](C)O)c3ccccc32)oc2ccccc12)[C@@H](C)O | Kd (read-out: KD Pανγε, series of the 11th table): > 10000 nM
< 100 nM | C[C@H](N)C(=O)N[C@H](C(=O)N1CCC[C@H]1Cc1c(-c2[nH]c3ccccc3c2C[C@@H]2CCCN2C(=O)[C@@H](NC(=O)[C@H](C)N)[C@@H](C)O)[nH]c2ccccc12)[C@@H](C)O | –
< 100 nM | CC[C@H](NC)C(=O)N[C@H](C(=O)N1CCC[C@H]1Cc1c(-c2[nH]c3ccccc3c2C[C@@H]2CCCN2C(=O)[C@@H](NC(=O)[C@H](CC)NC)C(C)C)[nH]c2ccccc12)C(C)C | –
– | CN[C@@H](C)C(=O)NCC(=O)N1CCC[C@H]1Cc1cn(CCOCCn2cc(C[C@@H]3CCCN3C(=O)CNC(=O)[C@H](C)NC)c3ccc(F)cc32)c2cc(F)ccc12 | Kd (read-out: KD Range,, Example 9 series): 1000 to 10000 nM
< 100 nM | CN[C@@H](C)C(=O)N[C@H](C(=O)N1CCC[C@H]1Cc1c(-c2[nH]c3ccccc3c2C[C@@H]2CCCN2C(=O)[C@@H](NC(=O)[C@H](C)NC)C(C)C)[nH]c2ccccc12)C(C)C | –
< 100 nM | C=CC[C@H](NC(=O)[C@H](C)NC)C(=O)N1CCC[C@H]1Cc1c(-c2[nH]c3cc(F)ccc3c2C[C@@H]2CCCN2C(=O)[C@H](CC=C)NC(=O)[C@H](C)NC)[nH]c2cc(F)ccc12 | –
< 100 nM | CN[C@@H](C)C(=O)N[C@H](C(=O)N1CCC[C@H]1Cc1c(-c2[nH]c3cc(F)ccc3c2C[C@@H]2CCCN2C(=O)[C@@H](NC(=O)[C@H](C)NC)[C@H](C)O)[nH]c2cc(F)ccc12)[C@H](C)O | –
– | CN[C@@H](C)C(=O)N[C@H]1CCCC[C@H](NC(=O)[C@H](C)NC)C(=O)N2CCC[C@H]2Cc2c3n(c4cc(F)ccc24)CCn2c-3c(c3ccc(F)cc32)C[C@@H]2CCCN2C1=O | Kd [1]: < 100 nM
